Only a part is listed here, and it is no random draw. Some tests of the compounds listed are not included; inactive here does not mean inactive elsewhere. Activity calls are given as the source filed them.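 Rule for the calls: active = inhibition above the screen-wide mean inhibition plus 3 SD (cut at about 21% in these data); inactive = the rest.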

This assay deals with cAMP-dependent protein kinase catalytic subunit alpha (Homo sapiens) (UniProt P17612). The experiment in a line: PKA catalytic subunit kinase inhibition – biochemical, ATP-depletion luminescence, Kemptide substrate, primary screen (AID 524). The conditions noted are these: PKA Kemptide phosphorylation, Kinase-Glo ATP luminescence; at 6 µM; stronger effect = higher value.
Consider `O=C(OC1CN2CCC1CC2)C(CO)(c1ccccc1)c1ccccc1` (configuration not stated), for which the inhibition (commonly the change of the read-out against control, counted positive when it falls) is inactive: -0.2%. For the compound `CN(C)c1cccc(C(=O)NCC2(N(C)C)CCCCC2)c1`, the inhibition was inactive: -4.9%.

(Values after PubChem BioAssay AID524 (The Scripps Research Institute Molecular Screening Center, 2006).)
